Source: patent US12590954B2, “Neural stem cell-induced differential medium and induction differentiation method” (IREGENE THERAPEUTICS, CO., LTD., priority 2020, dated 2026)

Test system: Human pluripotent stem cells
Experiment: CyQuant quantitative detection of cell viability during induction
Type: cell-based
Conditions: different concentrations, long-term culture
Description: The Cyquant assay was used to perform the quantitative detection of cell viability, thus investigating the effect of LY2157299 on the physiological state of the cells during long-term culture of the cells; Among them, the LSB method was used as the control group. 96-well light-tight cell culture plates were coated; after the coating was complete, cells were seeded separately at 5×10^4 cell number per well and three sets of parallel replicates were set (the average of three sets was calculated as data) to repeat the procedure of example 2.1. Wherein, the culture procedures described previously were incubated at 37° C. with 5% CO2. Samples were taken on days 1, 5, 10, 15 and 20 for cell viability assay using CyQuant Kit (Invitrogen, cat. No: X12223). The aforementioned assay was operated according to the instructions with a Spectramax i3 Multi-Mode Microplate Reader (VWR, model number: ID3-STD) for data reading. […] Combined with cost factors, the range of recombinant insulin and recombinant serum albumin used by the present invention falls within the range of optimal use.

With “recombinant serum albumin: protein tested at different concentrations for cell growth” the “rate of cell proliferation versus concentration (CyQuant)” value was “positively correlated with the rate of cell proliferation”.
